Measurements: ChEMBL document CHEMBL3351561, “Discovery of 9-(1-anilinoethyl)-2-morpholino-4-oxo-pyrido[1,2-a]pyrimidine-7-carboxamides as PI3Kβ/δ inhibitors for the treatment of PTEN-deficient tumours” (Bioorg Med Chem Lett, 2014)

Protein sequences, listed by entry. Tags and fused reporters are not part of them. Lines headed by an entry give the natural chain unless they say otherwise; changes in a name come on top.
UniProt P42338: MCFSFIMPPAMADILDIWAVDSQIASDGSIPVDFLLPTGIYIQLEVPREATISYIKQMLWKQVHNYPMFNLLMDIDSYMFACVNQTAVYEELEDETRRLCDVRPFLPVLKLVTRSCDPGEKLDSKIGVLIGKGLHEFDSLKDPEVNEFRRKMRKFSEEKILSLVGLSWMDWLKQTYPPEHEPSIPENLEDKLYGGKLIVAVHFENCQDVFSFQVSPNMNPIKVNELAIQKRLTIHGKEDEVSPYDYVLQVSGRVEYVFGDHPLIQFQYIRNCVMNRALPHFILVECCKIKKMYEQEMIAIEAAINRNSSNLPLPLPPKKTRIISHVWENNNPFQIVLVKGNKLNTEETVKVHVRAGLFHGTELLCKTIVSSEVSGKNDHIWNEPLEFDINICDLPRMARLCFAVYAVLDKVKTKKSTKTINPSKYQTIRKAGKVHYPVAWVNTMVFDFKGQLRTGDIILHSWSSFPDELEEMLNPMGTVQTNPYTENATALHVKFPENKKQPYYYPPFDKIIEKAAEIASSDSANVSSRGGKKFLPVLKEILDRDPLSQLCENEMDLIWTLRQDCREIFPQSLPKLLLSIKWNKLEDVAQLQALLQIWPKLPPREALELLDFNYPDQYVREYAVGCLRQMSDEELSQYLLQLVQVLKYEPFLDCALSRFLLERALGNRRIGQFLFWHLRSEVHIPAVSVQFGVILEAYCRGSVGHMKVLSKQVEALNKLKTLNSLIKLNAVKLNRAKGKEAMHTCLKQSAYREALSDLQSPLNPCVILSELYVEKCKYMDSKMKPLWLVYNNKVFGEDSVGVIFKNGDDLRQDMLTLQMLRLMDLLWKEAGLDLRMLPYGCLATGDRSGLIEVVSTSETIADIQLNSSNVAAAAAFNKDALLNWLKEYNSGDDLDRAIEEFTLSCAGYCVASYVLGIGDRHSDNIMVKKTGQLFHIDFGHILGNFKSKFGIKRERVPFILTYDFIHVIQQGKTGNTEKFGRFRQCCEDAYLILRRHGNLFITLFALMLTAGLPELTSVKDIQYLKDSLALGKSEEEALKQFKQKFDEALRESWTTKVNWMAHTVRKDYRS

Target: Phosphatidylinositol 4,5-bisphosphate 3-kinase catalytic subunit beta isoform (Homo sapiens, UniProt P42338)

Cc1cc(C(C)Nc2ccccc2)c2nc(N3CCOCC3)cc(=O)n2c1 (racemic)
IC50: 0.022 µM
